Laboratory results reported in patent US20080279769A1, “Enzyme Inhibitor Imaging Agents” (priority 2004, published 2008).

The chains behind the UniProt entries cited, without tags or fusion partners. Residues count along the entry.
UniProt P03956, 100-469 limits assumed: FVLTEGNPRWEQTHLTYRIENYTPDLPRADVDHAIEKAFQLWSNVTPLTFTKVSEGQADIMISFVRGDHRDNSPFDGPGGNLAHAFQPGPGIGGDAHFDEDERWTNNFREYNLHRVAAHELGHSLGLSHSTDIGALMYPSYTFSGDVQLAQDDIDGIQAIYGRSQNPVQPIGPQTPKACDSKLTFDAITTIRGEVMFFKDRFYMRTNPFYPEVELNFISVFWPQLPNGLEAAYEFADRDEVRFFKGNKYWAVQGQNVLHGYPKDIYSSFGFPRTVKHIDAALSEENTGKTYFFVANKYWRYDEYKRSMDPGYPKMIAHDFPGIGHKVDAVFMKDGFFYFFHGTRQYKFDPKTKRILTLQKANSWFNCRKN
UniProt P08253, 110-446 limits assumed: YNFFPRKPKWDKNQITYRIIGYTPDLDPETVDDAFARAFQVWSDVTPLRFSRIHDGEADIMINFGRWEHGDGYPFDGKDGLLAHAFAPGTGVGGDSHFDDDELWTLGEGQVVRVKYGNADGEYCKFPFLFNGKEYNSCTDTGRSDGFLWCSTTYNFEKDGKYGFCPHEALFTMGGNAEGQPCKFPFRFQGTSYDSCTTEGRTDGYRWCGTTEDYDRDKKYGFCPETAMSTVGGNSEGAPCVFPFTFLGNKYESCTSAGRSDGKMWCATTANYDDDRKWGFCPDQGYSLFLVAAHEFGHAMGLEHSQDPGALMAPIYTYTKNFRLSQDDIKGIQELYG
UniProt P22894, 101-467 limits assumed: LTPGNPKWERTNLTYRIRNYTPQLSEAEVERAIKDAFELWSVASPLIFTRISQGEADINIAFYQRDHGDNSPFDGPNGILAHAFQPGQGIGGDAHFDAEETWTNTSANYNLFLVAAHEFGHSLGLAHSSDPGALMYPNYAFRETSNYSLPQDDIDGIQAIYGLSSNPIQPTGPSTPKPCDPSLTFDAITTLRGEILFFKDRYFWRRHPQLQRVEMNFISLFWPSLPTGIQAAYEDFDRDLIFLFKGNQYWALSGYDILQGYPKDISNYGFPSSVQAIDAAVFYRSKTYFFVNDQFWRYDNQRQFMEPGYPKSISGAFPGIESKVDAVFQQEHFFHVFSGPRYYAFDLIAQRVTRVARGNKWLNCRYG
UniProt P14780, 107-444 limits assumed: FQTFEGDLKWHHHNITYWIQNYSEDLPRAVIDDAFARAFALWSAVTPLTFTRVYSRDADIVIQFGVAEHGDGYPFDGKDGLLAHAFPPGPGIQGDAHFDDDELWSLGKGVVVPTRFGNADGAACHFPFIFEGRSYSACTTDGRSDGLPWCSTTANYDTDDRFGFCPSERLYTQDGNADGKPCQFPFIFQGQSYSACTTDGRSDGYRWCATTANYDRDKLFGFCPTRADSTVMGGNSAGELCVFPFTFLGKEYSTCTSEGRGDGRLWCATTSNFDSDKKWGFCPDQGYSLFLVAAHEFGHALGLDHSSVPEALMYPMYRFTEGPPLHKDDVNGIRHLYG
UniProt P39900, 106-263 limits assumed: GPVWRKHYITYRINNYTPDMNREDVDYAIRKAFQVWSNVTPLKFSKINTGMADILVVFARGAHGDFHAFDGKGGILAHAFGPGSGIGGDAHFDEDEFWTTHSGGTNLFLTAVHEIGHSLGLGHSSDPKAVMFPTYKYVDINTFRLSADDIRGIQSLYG

Tests used:
MMP-1 = MMP-1 (Homo sapiens, UniProt P03956); assay: In vitro metalloproteinase inhibition assay (colorimetric, thiopeptolide substrate), MMP-1; conditions: read-out: MMP-1 [Ki]
MMP-2 = MMP-2 (Homo sapiens, UniProt P08253); assay: In vitro metalloproteinase inhibition assay (Biomol MMP-2 colorimetric assay kit); format: biochemical; conditions: read-out: MMP-2 (Ki)
MMP-8 = MMP-8 (Homo sapiens, UniProt P22894); assay: In vitro metalloproteinase inhibition assay (colorimetric, thiopeptolide substrate), MMP-8; conditions: read-out: MMP-8 (Ki)
MMP-9 = MMP-9 (Homo sapiens, UniProt P14780); assay: In vitro metalloproteinase inhibition assay (Biomol MMP-9 colorimetric assay kit); format: biochemical; conditions: read-out: MMP-9 (Ki)
MMP-12 = MMP-12 (Homo sapiens, UniProt P39900); assay: In vitro metalloproteinase inhibition assay (Biomol MMP-12 colorimetric assay kit); conditions: read-out: MMP-12 (Ki)

SMILES | Ki (MMP-1) [nM] | Ki (MMP-2) [nM] | Ki (MMP-8) [nM] | Ki (MMP-9) [nM] | Ki (MMP-12) [nM]
CC(C)C[C@H](CC(=O)N[C@@H](Cc1c[nH]c2ccccc12)C(=O)NCc1ccc(I)cc1)C(=O)NO | 0.48 | 0.26 | 1.13 | 0.13 | 0.14
CNC(=O)[C@H](Cc1ccc(I)cc1)NC(=O)C[C@@H](CC(C)C)C(=O)NO | 8.83 | 0.42 | 0.57 | 0.23 | 4.18
